In paper PMC4434464 (ACS Medicinal Chemistry Letters, 2015) one finds Ki data, which are given here for one compound.

Sequences of proteins named here, by UniProt entry; tags and fusion partners are left off.
UniProt Q15910, whole entry: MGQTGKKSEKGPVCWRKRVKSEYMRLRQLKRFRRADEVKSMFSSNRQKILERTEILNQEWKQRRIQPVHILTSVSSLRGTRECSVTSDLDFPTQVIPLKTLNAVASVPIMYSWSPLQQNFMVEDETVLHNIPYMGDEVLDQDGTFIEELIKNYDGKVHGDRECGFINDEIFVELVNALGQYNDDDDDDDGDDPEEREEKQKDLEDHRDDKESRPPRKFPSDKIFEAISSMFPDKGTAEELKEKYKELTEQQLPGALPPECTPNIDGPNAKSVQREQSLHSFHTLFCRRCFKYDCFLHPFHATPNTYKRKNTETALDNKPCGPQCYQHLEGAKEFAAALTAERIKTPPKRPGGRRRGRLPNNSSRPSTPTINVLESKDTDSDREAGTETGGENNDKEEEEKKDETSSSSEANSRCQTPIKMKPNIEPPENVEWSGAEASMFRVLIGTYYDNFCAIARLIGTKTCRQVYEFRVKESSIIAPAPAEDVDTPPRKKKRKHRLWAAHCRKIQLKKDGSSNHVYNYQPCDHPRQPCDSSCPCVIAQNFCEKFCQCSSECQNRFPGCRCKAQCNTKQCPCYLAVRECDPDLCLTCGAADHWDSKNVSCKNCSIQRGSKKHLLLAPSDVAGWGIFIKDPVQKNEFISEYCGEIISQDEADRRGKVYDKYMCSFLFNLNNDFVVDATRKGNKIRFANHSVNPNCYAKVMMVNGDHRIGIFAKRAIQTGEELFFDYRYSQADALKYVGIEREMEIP
UniProt Q15910, whole entry Y641F: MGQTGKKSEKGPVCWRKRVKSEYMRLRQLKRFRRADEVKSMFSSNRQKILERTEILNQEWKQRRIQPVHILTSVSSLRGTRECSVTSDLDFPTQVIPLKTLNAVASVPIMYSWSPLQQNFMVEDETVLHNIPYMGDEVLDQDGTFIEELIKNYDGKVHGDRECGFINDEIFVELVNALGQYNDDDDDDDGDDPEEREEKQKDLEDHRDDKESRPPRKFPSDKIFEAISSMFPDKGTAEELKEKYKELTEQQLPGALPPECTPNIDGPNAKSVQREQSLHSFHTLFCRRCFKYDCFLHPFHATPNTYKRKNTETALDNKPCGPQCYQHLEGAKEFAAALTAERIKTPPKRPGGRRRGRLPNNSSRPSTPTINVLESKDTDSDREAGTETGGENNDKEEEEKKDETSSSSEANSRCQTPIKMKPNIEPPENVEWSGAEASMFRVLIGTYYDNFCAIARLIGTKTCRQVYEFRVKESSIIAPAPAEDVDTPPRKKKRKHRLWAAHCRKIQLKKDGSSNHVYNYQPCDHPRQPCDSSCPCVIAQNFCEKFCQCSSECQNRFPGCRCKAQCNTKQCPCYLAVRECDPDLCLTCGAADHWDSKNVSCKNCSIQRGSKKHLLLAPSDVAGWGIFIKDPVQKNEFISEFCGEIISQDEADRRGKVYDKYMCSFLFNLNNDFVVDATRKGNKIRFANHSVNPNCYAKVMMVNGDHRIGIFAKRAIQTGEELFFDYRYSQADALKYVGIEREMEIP

Each structure is given as a SMILES string.

One assay has as its target EZH2 (WT) (Homo sapiens, UniProt Q15910). Briefly: EZH2 biochemical Ki.
In another assay the target is EZH2 (Y646) (Homo sapiens, UniProt Q15910, Y641F). Briefly: EZH2 biochemical Ki.

As usually defined, the Ki is the dissociation constant of the complex between target and ligand, obtained from inhibition or displacement.

In the case of `CCN(c1cc(C#CCN2CCOCC2)cc(C(=O)NCc2c(C)cc(C)[nH]c2=O)c1C)[C@H]1CC[C@H](N(C)CCOC)CC1` [EPZ011989, N-((4,6-Dimethyl-2-oxo-1,2-dihydropyridin-3-yl)methyl)-3-(ethyl((trans)-4-((2-methoxyethyl)(methyl)amino)cyclohexyl)amino)-2-methyl-5-(3-morpholinoprop-1-yn-1-yl)benzamide], the Ki on EZH2 (WT) and at EZH2 (Y646) was < 3 nM throughout.
